{"sequences": {"note": "The chains behind the UniProt entries cited, without tags or fusion partners. Where a name states a change or a piece, a line headed by the entry shows the natural chain unless it says otherwise.", "UniProt P30680": "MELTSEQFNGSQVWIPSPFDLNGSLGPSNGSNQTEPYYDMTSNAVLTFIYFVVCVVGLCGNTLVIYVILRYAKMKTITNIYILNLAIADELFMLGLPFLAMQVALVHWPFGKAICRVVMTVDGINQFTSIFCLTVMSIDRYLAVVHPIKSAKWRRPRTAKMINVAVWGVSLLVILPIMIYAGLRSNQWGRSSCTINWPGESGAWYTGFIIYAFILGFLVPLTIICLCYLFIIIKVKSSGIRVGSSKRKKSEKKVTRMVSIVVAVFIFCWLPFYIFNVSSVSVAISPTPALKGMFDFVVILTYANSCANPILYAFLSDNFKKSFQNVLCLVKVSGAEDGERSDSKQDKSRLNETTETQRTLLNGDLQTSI"}, "source": "patent EP0791603A2", "about": "“Pure somatostatin antagonist and methods of use thereof” (American Cyanamid Company, priority 1996, dated 1997)", "molecular_target": "T1, rat somatostatin receptor subtype 2 (SSTR2) (Rattus norvegicus, UniProt P30680)", "T1 construct": "expressed in transfected cells; host or cells: Saccharomyces cerevisiae LY364", "experiment": "Yeast assay, somatostatin agonist activity (growth zone of modified yeast cells on histidine-free agar)", "assay_type": "cell-based", "conditions": "10 µL of a 1 mg/mL solution of S-14 in sterile water applied to the surface of the plate", "experimental": "In this evaluation, yeast cells which have been specifically modified to functionally express rat somatostatin receptor subtype 2 (SSTR2) on their cell surfaces are used. S. Cerevisiae LY364 cells are plated in a standard synthetic agar medium which lacks histidine. In the absence of a somatostatin receptor agonist, the auxotrophic (his3) cells are unable to grow. In the presence of somatostatin, or a somatostatin agonist, the expression of an enzyme (His3p: imidazole-glycerol phosphate dehydratase) which is essential for histidine biosynthesis is induced. The cells become competent to produce histidine, resulting in a zone of growing cells around the applied test compound. The zone is measured and the test compound is given an agonist rating on a scale of 1-5 wherein 1 is minimum agonist activity and 5 is maximum agonist activity.\nSCD-ura-trp: • 1) To 500 mL water add: • 1.7 g YNB without amino acids and (NH4)2SO4 • 5.0 g (NH4)2SO4 • 0.7 g CSM-ura-trp • 2) To additional 500 mL water add: 20 g Dextrose • 3) Autoclave separately. Mix.\nSCL-ura-trp: • 1) To 500 mL water add: • 1.7 g YNB without amino acids and (NH4)2SO4 • 5.0 g (NH4)2SO4 • 0.7 g CSM-ura-trp • 2) To additional 500 mL water add: 30 mL Lactic Acid • 3) Autoclave separately. Mix. […]\nOn day 3, add 5µL 1 mg/mL S-14 to each plate. […] Growth in response to somatostatin should be readily observable. […]", "data": [{"substance": "Somatostatin-14 [reference compound]", "values": [{"measurement": "zone of growth, diameter", "result": "2.5-3 cm"}]}]}
